Data on 35 compounds can be found in patent publication US10730889B2, “Amido spirocyclic amide and sulfonamide derivatives” (Forma TM, LLC, priority 2012, dated 2020).

Chains of the proteins cited; added tags and fusions are not shown. Lines headed by an entry give the natural chain unless they say otherwise; changes in a name come on top.
UniProt P43490: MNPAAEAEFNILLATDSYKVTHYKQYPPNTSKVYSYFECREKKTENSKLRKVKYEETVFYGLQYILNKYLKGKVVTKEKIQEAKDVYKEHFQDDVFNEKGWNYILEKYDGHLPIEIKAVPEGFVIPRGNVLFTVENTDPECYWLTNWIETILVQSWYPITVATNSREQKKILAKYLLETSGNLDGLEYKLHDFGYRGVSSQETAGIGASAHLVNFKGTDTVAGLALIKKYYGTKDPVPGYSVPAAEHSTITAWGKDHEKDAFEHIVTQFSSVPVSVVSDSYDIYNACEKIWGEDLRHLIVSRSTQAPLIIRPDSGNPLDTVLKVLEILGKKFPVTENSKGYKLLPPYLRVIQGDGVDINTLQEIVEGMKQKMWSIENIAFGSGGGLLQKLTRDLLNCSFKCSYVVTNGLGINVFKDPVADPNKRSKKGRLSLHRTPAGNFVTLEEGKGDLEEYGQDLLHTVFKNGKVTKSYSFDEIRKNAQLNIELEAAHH

For the test, the target named is NAMPT (Homo sapiens (Human), UniProt P43490). Nature of the test: Biochemical inhibition assay (NAMPT enzymatic reaction, NMN quantified by mass spectrometry).
By IC50 is commonly meant the midpoint of a concentration-inhibition curve. Read a high IC50 as weaker potency in that assay. Take `Cc1ccn(CC(C)C(=O)N2CCC3(CC2)CC3CNC(=O)c2cc3ccncc3o2)n1` (centres unmarked) [Example 140, N-[[6-[2-methyl-3-(3-methylpyrazol-1-yl)propanoyl]-6-azaspiro[2.5]octan-2-yl]methyl]furo[2,3-c]pyridine-2-carboxamide]: the IC50 was found to be 780 nM.
Compound `O=C(NCC1CC12CCN(C(=O)c1cn[nH]c1)CC2)c1cc2ccncc2o1` (centres unmarked) [Example 141, N-[[6-(1H-pyrazole-4-carbonyl)-6-azaspiro[2.5]octan-2-yl]methyl]furo[2,3-c]pyridine-2-carboxamide] came in with an IC50 of 222 nM.
In the case of `CS(=O)(=O)N1CCC(CC(=O)N2CCC3(CC2)CC3CNC(=O)c2cc3ccncc3o2)CC1` (centres unmarked) [Example 142, N-[[6-[2-(1-methylsulfonyl-4-piperidyl)acetyl]-6-azaspiro[2.5]octan-2-yl]methyl]furo[2,3-c]pyridine-2-carboxamide], the IC50 stood at 116 nM. This IC50 is about 1.9-fold lower than that of the compound before.
The compound `CN1CCOC(C(=O)N2CCC3(CC2)CC3CNC(=O)c2cc3ccncc3o2)C1` (centres unmarked) [Example 143, N-[[6-(4-methylmorpholine-2-carbonyl)-6-azaspiro[2.5]octan-2-yl]methyl]furo[2,3-c]pyridine-2-carboxamide] came in with a 50% inhibitory concentration (IC50) of 1220 nM.
As for `CC(C)C(=O)N1CC(C(=O)N2CCC3(CC2)CC3CNC(=O)c2cc3ccncc3o2)C1` (centres unmarked) [Example 144, N-[[6-[1-(2-methylpropanoyl)azetidine-3-carbonyl]-6-azaspiro[2.5]octan-2-yl]methyl]furo[2,3-c]pyridine-2-carboxamide], the figure is 116 nM.
As for `CC(=O)N1CC(C(=O)N2CCC3(CC2)CC3CNC(=O)c2cc3ccncc3o2)C1` (centres unmarked) [Example 145, N-[[6-(1-acetylazetidine-3-carbonyl)-6-azaspiro[2.5]octan-2-yl]methyl]furo[2,3-c]pyridine-2-carboxamide], the figure is 494 nM; as for `O=C(NCC1CC12CCN(C(=O)C1CCN(c3cccnn3)C1)CC2)c1cc2ccncc2o1` (centres unmarked) [Example 146, N-[[6-(1-pyridazin-3-ylpyrrolidine-3-carbonyl)-6-azaspiro[2.5]octan-2-yl)methyl]furo[2,3-c]pyridine-2-carboxamide], 80.1 nM; as for `O=C(NCC1CC12CCN(C(=O)CC1CCN(c3ncccn3)CC1)CC2)c1cc2ccncc2o1` (centres unmarked) [Example 147, N-[[6-[2-(1-pyrimidin-2-yl-4-piperidyl)acetyl]-6-azaspiro[2.5]octan-2-yl]methyl]furo[2,3-c]pyridine-2-carboxamide], 55.3 nM.
As for `CC(C)N1CCC(CC(=O)N2CCC3(CC2)CC3CNC(=O)c2cc3ccncc3o2)CC1` (centres unmarked) [Example 148, N-[[6-[2-(1-isopropyl-4-piperidyl)acetyl]-6-azaspiro[2.5]octan-2-yl]methyl]furo[2,3-c]pyridine-2-carboxamide], the figure is 288 nM; as for `CC1(CC(=O)N2CCC3(CC2)CC3CNC(=O)c2cc3cnccc3[nH]2)COC1` (centres unmarked) [Example 150, N-([6-[2-(3-methyloxetan-3-yl)acetyl]-6-azaspiro[2.5]octan-1-yl]methyl)-1H-pyrrolo[3,2-c]pyridine-2-carboxamide], 310 nM.
The compound `N#Cc1ccccc1CC(=O)N1CCC2(CC1)CC2CNC(=O)c1cc2ccncc2o1` (centres unmarked) [Example 152, N-[[6-[2-(2-cyanophenyl)acetyl]-6-azaspiro[2.5]octan-2-yl]methyl]furo[2,3-c]pyridine-2-carboxamide] returned an IC50 of 60.1 nM.
As for `COCCC(=O)N1CCC2(CC1)CC2CNC(=O)c1cc2ccncc2o1` (centres unmarked) [Example 153, N-[[6-(3-methoxypropanoyl)-6-azaspiro[2.5]octan-2-yl]methyl]furo[2,3-c]pyridine-2-carboxamide], the figure is 686 nM; as for `O=C(NCC1CC12CCN(C(=O)Cc1ccc(S(=O)(=O)C(F)(F)F)cc1)CC2)c1cc2ccncc2o1` (centres unmarked) [Example 154, N-[[6-[2-[4-(trifluoromethylsulfonyl)phenyl]acetyl]-6-azaspiro[2.5]octan-2-yl]methyl]furo[2,3-c]pyridine-2-carboxamide], 208 nM; as for `CC(=O)N(C)CCC(=O)N1CCC2(CC1)CC2CNC(=O)c1cc2ccncc2o1` (centres unmarked) [Example 155, N-[[6-[3-[acetyl(methyl]amino]propanoyl]-6-azaspiro[2.5]octan-2-yl]methyl]furo[2,3-c]pyridine-2-carboxamide], 261 nM.
As for `N#Cc1ccc(NC(=O)N2CCC3(CC2)CC3CNC(=O)c2cc3ccncc3o2)cc1` (centres unmarked) [Example 157, N-[[6-[(4-cyanophenyl)carbamoyl]-6-azaspiro[2.5]octan-2-yl)methyl]furo[2,3-c]pyridine-2-carboxamide], the figure is 75.2 nM; as for `Cc1cccc(CNC(=O)N2CCC3(CC2)CC3CNC(=O)c2cc3ccncc3o2)c1` (centres unmarked) [Example 158, N-[[6-(m-tolylmethylcarbamoyl)-6-azaspiro[2.5]octan-2-yl]methyl]furo[2,3-c]pyridine-2-carboxamide], 410 nM.
Next, `Cc1ccc(NC(=O)N2CCC3(CC2)CC3CNC(=O)c2cc3ccncc3o2)cc1` (centres unmarked) [Example 159, N-[[6-(p-tolylcarbamoyl)-6-azaspiro[2.5]octan-2-yl]methyl]furo[2,3-c]pyridine-2-carboxamide]: 33.2 nM; `O=C(NCC1CC12CCN(C(=O)NCc1ccccc1)CC2)c1cc2ccncc2o1` (centres unmarked) [Example 160]: 951 nM.
In the case of `O=C(NCC1CC12CCN(C(=O)NCc1ccccc1F)CC2)c1cc2ccncc2o1` (centres unmarked) [Example 161, N-[[6-[(2-fluorophenyl)methylcarbamoyl]-6-azaspiro[2.5]octan-2-yl]methyl]furo[2,3-c]pyridine-2-carboxamide], the IC50 turned out to be 123 nM.
As for `Cc1ccc(CNC(=O)N2CCC3(CC2)CC3CNC(=O)c2cc3ccncc3o2)cc1` (centres unmarked) [Example 162, N-[[6-(p-tolylmethylcarbamoyl)-6-azaspiro[2.5]octan-2-yl]methyl]furo[2,3-c]pyridine-2-carboxamide], the figure is 441 nM; as for `O=C(NCC1CC12CCN(C(=O)NCc1ccc(F)cc1)CC2)c1cc2ccncc2o1` (centres unmarked) [Example 163, N-[[6-[(4-fluorophenyl)methylcarbamoyl]-6-azaspiro[2.5]octan-2-yl]methyl]furo[2,3-c]pyridine-2-carboxamide], 559 nM; as for `COc1ccccc1CNC(=O)N1CCC2(CC1)CC2CNC(=O)c1cc2ccncc2o1` (centres unmarked) [Example 164, N-[[6-((2-methoxyphenyl)methylcarbamoyl]-6-azaspiro[2.5]octan-2-yl]methyl]furo[2,3-c]pyridine-2-carboxamide], 118 nM.
As for `COc1cccc(CNC(=O)N2CCC3(CC2)CC3CNC(=O)c2cc3ccncc3o2)c1` (centres unmarked) [Example 165, N-[[6-[(3-methoxyphenyl)methylcarbamoyl]-6-azaspiro[2.5]octan-2-yl]methyl]furo[2,3-c]pyridine-2-carboxamide], the figure is 309 nM; as for `O=C(NCC1CC12CCN(C(=O)NCc1cccc(F)c1)CC2)c1cc2ccncc2o1` (centres unmarked) [Example 166, N-[[6-[(3-fluorophenyl)methylcarbamoyl]-6-azaspiro[2.5]octan-2-yl]methyl]furo[2,3-c]pyridine-2-carboxamide], 406 nM; as for `COc1ccc(CNC(=O)N2CCC3(CC2)CC3CNC(=O)c2cc3ccncc3o2)cc1` (centres unmarked) [Example 167, N-[[6-[(4-methoxyphenyl)methylcarbamoyl]-6-azaspiro[2.5]octan-2-yl]methyl]furo[2,3-c]pyridine-2-carboxamide], 314 nM.
Regarding `O=C(NCC1CC12CCN(C(=O)NCc1ccc(Cl)c(Cl)c1)CC2)c1cc2ccncc2o1` (centres unmarked) [Example 168, N-[[6-[(3,4-dichlorophenyl)methylcarbamoyl]-6-azaspiro[2.5]octan-2-yl]methyl]furo[2,3-c]pyridine-2-carboxamide], the IC50 came to 113 nM.
The compound `O=C(NCC1CC12CCN(C(=O)NCc1ccc(Cl)cc1)CC2)c1cc2ccncc2o1` (centres unmarked) [Example 170, N-[[6-[(4-chlorophenyl)methylcarbamoyl]-6-azaspiro[2.5]octan-2-yl]methyl]furo[2,3-c]pyridine-2-carboxamide] showed a half-maximal inhibitory concentration (IC50) of 161 nM.
The compound `O=C(NCC1CC12CCN(C(=O)NCc1ccccc1Cl)CC2)c1cc2ccncc2o1` (centres unmarked) [Example 171, N-[[6-[(2-chlorophenyl)methylcarbamoyl]-6-azaspiro[2.5]octan-2-yl]methyl]furo[2,3-c]pyridine-2-carboxamide] showed a half-maximal inhibitory concentration (IC50) of 60.4 nM.
In the case of `CCNC(=O)N1CCC2(CC1)CC2CNC(=O)c1cc2ccncc2o1` (centres unmarked) [Example 172, N-[[6-(ethylcarbamoyl)-6-azaspiro[2.5]octan-2-yl)methyl]furo[2,3-c]pyridine-2-carboxamide], the IC50 was found to be 422 nM.
For `O=C(NCC1CC12CCN(C(=O)NCc1ccc(Cl)cc1Cl)CC2)c1cc2ccncc2o1` (centres unmarked) [Example 173, N-[(6-[(2,4-dichlorophenyl)methylcarbamoyl]-6-azaspiro[2.5]octan-2-yl]methyl]furo[2,3-c]pyridine-2-carboxamide], half-maximal inhibition (IC50) required 146 nM.
As for `CC1(O)CC(CC(=O)N2CCC3(CC2)CC3CNC(=O)c2cc3ccncc3o2)C1` (centres unmarked) [Example 174, N-([6-[2-(3-hydroxy-3methylcyclobutyl)acetyl]-6-azaspiro[2.5]octan-1-yl]methyl)furo[2,3-c]pyridine-2-carboxamide], the figure is 238 nM; as for `O=C(Cc1ccccn1)N1CCC2(CC1)CC2CNC(=O)N1Cc2ccncc2C1` (centres unmarked) [Example 176, N-[[6-[2-(2-pyridyl)acetyl]-6-azaspiro[2.5]octan-2-yl]methyl] 1,3-dihydropyrrolo[3,4-c]pyridine-2-carboxamide], 37.6 nM.
In turn, `O=C(Cc1cccnc1)N1CCC2(CC1)CC2CNC(=O)N1Cc2ccncc2C1` (centres unmarked) [Example 177] had an IC50 of 36.3 nM.
As for `O=C(NCC1CC12CCN(C(=O)c1ccc(-n3cncn3)cc1)CC2)c1cc2ccncc2o1` (centres unmarked) [Example 179, N-[[6-[4-(1,2,4-triazol-1-yl)benzoyl]-6-azaspiro[2.5]octan-2-yl]methyl]furo[2,3-c]pyridine-2-carboxamide], the figure is 34 nM.
Next, `Cc1nccn1CC(=O)N1CCC2(CC1)CC2CNC(=O)c1cc2ccncc2o1` (centres unmarked) [Example 180, N-[[6-[2-(2-methylimidazol-1-yl)acetyl]-6-azaspiro[2.5]octan-2-yl]methyl]furo[2,3-c]pyridine-2-carboxamide]: 2000 nM.
